Ab-14 heavy chain CDR variants: yeast mating affinities

Reference: Engelhart et al. 2022, doi:10.1038/s41597-022-01779-4. File: FLAb, binding data.

Antigen: PDVDLGDISGINAS, a 14-residue peptide of the SARS-CoV-2 spike HR2 region.

Each scFv is VH, three GGGGS repeats, VL, as in the parent Ab-14, and differs from it in the CDRs of the heavy chain only.
VH: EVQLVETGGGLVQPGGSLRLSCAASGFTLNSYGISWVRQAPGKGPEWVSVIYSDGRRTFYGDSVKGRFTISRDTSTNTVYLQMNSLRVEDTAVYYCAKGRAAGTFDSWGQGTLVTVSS
VL: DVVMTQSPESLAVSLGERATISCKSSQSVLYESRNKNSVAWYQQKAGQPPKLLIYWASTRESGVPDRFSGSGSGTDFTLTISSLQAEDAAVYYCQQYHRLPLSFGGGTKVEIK

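Variants in AAYL49 differ from the parent at up to three CDR positions; double and triple changes were sampled at random. In AlphaSeq, yeast of one mating type display the scFv and yeast of the other type display the target. Mating (16 h, 30 °C) was followed by selection of diploids and sequencing of their barcodes. Scores were corrected for input abundance and mapped to Kd with protein pairs of known affinity run in the same pool. Mating was done three times.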

Each variant is given by its three heavy chain CDRs, as the data file delimits them; those of the parent are GFTLNSYGIS, VIYSDGRRTFYGDSVK, GRAAGTFDS. All variants listed here change G103 of the VH, counted from its first residue. Kd is apparent (estimated from mating counts) and averaged on the log scale over replicates with a signal. Smaller is tighter. Where no diploid with the target was found in any replicate, the entry reads "no signal": below detection, most likely a poor binder, though not proof of it. In this assay the parent's reference entry averaged 4.4 nM; its copy inside this library read 13 µM (one replicate of three).

CDR-H1	CDR-H2	CDR-H3	apparent Kd	detected
GFTLNSYGAR	VIYSDGRRTFYGDSVK	GRAAFTFDS	690 µM	2/3
GQTANSYGIS	VIYSDGRRTFYGDSVK	GRAAKTFDS	61 µM	3/3
GFTLNMYGIS	VIYSDGRRTLYGDSVK	GRAAQTFDS	13 µM	2/3
GFTLNSYGIS	VISSDGRRTFYGDSVK	HRAAQTFDS	230 µM	3/3
GFTLNSYGII	VIYSDGRRTFYGDVVK	GRAAQTFDS	no signal	0/3
GFTLNSYGIS	VIYSDGRDTFYGDSVK	GRAAITFDS	3.3 µM	1/3
GFTLNSYGIS	VIYSDGRRTFYGDSVK	GRAAITSFS	2.4 nM	3/3
GFTLNSYGIS	VNYSDGRRTPYGDSVK	GRAACTFDS	no signal	0/3
GFTLNLYGIS	MIYSDGRRTFYGDSVK	GRAADTFDS	540 µM	2/3
GFTLNSYGIS	VIYSDGRRTDYGDSVK	GRAADTFFS	1.5 µM	3/3
GFTLNSYGIS	HIYSDGRRTFYGDSVK	LRAALTFDS	9.9 µM	1/3
HFTLNSYGIS	VIYSDGRRTFYGDSVK	GRAAFAFDS	300 nM	3/3
GFTLNSYGIS	VIYSDGRKRFYGDSVK	GRAAETFDS	26 µM	2/3
GFTLNSYGIS	VIYSDGRFTFYGDSVK	GRAATTFDS	no signal	0/3
GFTLNSYGIS	VIYSDGRRTFYGDSVK	GREAPTFDS	5.9 µM	3/3
EFTLNSYGIS	VIYSDGRRTFFGDSVK	GRAAPTFDS	no signal	0/3
GFTLNSYGIS	VIYADGRRTFYGDSVK	GRAADRFDS	1.2 nM	3/3
GFTLNSYGIS	VIYSDGRRTFRGDSCK	GRAAQTFDS	60 µM	2/3
GFTLNSYGIS	VIYSDGRRTSYGDDVK	GRAARTFDS	15 nM	3/3
GFTLNSIGIS	VIYDDGRRTFYGDSVK	GRAAATFDS	no signal	0/3
GFTLMSYGIS	VIYSDGRRTFYGDSVK	GRAAHTHDS	300 nM	3/3
GFTLQSYGFS	VIYSDGRRTFYGDSVK	GRAAMTFDS	no signal	0/3
GFTLNSYGIS	VIYSDGARTFYGDSNK	GRAASTFDS	9.5 µM	1/3
GFTLTSYGIS	VIYSDGRRTFYSDSVK	GRAAVTFDS	6.3 nM	3/3
GFTLNSYGIS	DIYSDGRRTFYGDSVK	GRAGDTFDS	2.7 µM	1/3
GFTLNKYGIS	VISSDGRRTFYGDSVK	GRAAMTFDS	21 µM	2/3
GFTLNSYGIS	VIESDGRRTFYGDSVK	GRAAWTFDS	no signal	0/3
EFTLNSYGIS	VIYSDGRRTFYGDYVK	GRAALTFDS	no signal	0/3
GFTLNSYGIS	VIYSNGTRTFYGDSVK	GRAACTFDS	no signal	0/3
GFTLHSYGIS	VIYSDGRRTFYGDDVK	GRAAETFDS	980 µM	2/3
GFTLNSYGIS	VIYSDGRRTFRGDKVK	GRAACTFDS	no signal	0/3
GFTLNSNGIS	VIYSDGRRTFYGDSVL	GRAAQTFDS	760 nM	1/3
GFTLNSYGIS	VIYSDGERTFYGDSVK	GRAERTFDS	no signal	0/3
GFTLNSYGIK	VIYSDGRRTFYGDSVK	MRAAATFDS	300 nM	1/3
GFTLNSYGIP	VIYSDGRRSFYGDSVK	GRAASTFDS	9.4 µM	2/3
GFTLNSYGIS	VIYSDGRRTFYGDSVK	GRAAPTEDS	310 nM	3/3
PFTLNSYGIS	VIGSDGRRTFYGDSVK	GRAACTFDS	no signal	0/3
GFTLNSYGIS	VIYSTGRRTFYGDSVK	RRAARTFDS	no signal	0/3
GFTLNSYIIS	VIYSDGRRTFYGDSVK	GRAAITFDS	no signal	0/3
GFTLNSYGIQ	VIYSDGRRTFYGDSVK	GMAAMTFDS	60 µM	1/3
GFTLNSYGIS	VIYSDGRRTFDGWSVK	GRAAITFDS	no signal	0/3
GGTLNSYGIS	VIYSWGRRTFYGDSVK	GRAAHTFDS	no signal	0/3
GFTLNSYGFS	VIYSDGRRTFYGDSVK	GRAMETFDS	200 µM	1/3
GFTLNSYGRS	VIYSDGRRTFYLDSVK	GRAALTFDS	57 µM	1/3
GFTLNSYGIS	VIYSDGRWTFYGDSVK	GRAAASFDS	no signal	0/3
GFTLNSYGIS	VIYSDGRRTFEADSVK	GRAAVTFDS	no signal	0/3
GFTLNSYGIS	VIYSDGRRTFYGDDVK	GRAACTFDS	8.2 nM	3/3
GFTLNSYGIS	VIYSDGRRTFYGDSVY	GVAAYTFDS	no signal	0/3
GFTLYSYGIS	VIVSDGRRTFYGDSVK	GRAAYTFDS	54 µM	1/3
GYTLNSYGIS	VIYSDGRRTFYGDSVK	GRAGYTFDS	780 nM	3/3
GFTLNSYGIE	VIYSDGRRTFDGDSVK	GRAACTFDS	no signal	0/3
GFTLNSYGIS	VIYQDGRRTHYGDSVK	GRAAETFDS	no signal	0/3

The closing 3 entries, repeated:

CDR-H1	CDR-H2	CDR-H3	apparent Kd	detected
GYTLNSYGIS	VIYSDGRRTFYGDSVK	GRAGYTFDS	780 nM	3/3
GFTLNSYGIE	VIYSDGRRTFDGDSVK	GRAACTFDS	no signal	0/3
GFTLNSYGIS	VIYQDGRRTHYGDSVK	GRAAETFDS	no signal	0/3

Background: pairings of library AAYL49 with three empty control strains gave a value in 15% of cases (median 11 µM, 5th percentile 680 nM). Values in that range, when seen in few replicates, are hard to tell from nonspecific mating.